Here are results for three molecules from patent EP4825857A1, “TRICYCLIC FUSED HETEROCYCLIC PDE3/4 DUAL INHIBITOR, AND PREPARATION AND USE THEREFOR” (dated 2026).

By UniProt entry, the sequences of proteins in these tests, tags left out. Chains listed by the source or under a name are the forms on record and can include a tag or linker. Residues count along the entry.
UniProt Q08499, 303-809 limits assumed: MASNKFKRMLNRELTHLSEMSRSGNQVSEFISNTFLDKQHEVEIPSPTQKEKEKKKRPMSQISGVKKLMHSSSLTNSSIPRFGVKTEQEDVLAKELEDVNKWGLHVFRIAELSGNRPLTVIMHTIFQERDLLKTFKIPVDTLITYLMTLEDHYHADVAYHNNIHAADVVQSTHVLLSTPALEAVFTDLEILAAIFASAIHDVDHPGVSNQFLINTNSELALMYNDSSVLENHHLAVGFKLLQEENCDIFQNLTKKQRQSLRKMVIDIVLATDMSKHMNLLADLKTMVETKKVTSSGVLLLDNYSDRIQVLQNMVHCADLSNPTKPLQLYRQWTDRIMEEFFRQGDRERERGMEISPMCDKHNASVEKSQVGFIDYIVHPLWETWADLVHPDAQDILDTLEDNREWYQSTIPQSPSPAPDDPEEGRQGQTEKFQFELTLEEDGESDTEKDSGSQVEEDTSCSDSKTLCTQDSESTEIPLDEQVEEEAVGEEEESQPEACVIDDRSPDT
UniProt Q08499, 1-673 with tags or gaps: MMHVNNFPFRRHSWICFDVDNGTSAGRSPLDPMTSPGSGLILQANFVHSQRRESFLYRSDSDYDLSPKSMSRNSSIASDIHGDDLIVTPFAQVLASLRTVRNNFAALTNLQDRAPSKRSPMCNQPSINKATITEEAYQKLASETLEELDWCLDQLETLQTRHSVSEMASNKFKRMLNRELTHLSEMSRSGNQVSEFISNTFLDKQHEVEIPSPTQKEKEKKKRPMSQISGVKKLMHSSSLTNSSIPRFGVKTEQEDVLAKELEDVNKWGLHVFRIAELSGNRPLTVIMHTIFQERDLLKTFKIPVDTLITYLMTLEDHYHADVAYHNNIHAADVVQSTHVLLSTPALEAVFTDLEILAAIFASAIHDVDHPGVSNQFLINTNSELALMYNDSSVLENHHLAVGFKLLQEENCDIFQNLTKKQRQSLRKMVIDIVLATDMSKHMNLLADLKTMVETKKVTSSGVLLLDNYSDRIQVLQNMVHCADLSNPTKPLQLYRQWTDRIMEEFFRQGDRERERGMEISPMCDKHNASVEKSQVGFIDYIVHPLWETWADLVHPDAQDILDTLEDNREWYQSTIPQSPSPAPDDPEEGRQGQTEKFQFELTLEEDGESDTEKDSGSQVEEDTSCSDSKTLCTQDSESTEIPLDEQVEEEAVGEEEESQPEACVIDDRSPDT
UniProt Q9NP56, whole entry: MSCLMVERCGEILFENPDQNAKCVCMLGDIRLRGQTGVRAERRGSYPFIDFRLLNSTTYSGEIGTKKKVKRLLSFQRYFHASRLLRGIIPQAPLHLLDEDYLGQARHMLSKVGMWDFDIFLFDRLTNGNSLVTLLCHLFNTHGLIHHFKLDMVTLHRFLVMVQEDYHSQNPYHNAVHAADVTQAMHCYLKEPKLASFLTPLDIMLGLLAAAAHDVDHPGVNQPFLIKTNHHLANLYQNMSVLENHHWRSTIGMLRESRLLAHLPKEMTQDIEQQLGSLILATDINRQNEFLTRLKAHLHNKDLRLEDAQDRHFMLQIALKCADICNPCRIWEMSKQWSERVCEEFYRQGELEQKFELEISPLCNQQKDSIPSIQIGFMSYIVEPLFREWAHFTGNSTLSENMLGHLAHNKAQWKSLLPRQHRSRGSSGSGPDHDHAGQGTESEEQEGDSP
UniProt Q13946, whole entry: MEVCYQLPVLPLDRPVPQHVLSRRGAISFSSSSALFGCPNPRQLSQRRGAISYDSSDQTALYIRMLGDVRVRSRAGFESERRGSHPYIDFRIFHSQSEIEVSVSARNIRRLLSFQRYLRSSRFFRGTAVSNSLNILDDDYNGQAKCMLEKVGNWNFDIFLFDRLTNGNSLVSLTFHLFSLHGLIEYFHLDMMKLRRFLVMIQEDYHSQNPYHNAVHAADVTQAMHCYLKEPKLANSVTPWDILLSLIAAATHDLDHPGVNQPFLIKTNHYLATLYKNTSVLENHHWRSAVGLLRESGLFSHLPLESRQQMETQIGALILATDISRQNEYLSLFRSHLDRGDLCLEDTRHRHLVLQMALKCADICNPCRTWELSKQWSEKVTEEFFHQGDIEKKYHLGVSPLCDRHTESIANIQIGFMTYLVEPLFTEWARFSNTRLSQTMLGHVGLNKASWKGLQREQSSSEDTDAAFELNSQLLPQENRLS
UniProt Q07343, 1-564 with tags or gaps: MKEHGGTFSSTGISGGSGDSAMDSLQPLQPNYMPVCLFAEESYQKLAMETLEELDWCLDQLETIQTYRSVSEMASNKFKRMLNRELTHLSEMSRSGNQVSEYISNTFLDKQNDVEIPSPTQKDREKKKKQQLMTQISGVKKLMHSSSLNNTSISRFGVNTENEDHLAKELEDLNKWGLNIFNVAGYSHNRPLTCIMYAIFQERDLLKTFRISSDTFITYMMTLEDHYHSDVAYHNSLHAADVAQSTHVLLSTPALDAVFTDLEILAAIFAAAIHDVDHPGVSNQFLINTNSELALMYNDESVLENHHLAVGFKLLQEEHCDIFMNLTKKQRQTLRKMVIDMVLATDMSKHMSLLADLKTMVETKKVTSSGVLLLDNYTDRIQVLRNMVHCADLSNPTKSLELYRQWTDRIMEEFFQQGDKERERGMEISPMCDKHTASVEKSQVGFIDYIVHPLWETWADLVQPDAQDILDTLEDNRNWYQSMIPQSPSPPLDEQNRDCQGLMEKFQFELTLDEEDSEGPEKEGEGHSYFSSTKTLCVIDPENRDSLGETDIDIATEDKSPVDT
UniProt Q07343, whole entry: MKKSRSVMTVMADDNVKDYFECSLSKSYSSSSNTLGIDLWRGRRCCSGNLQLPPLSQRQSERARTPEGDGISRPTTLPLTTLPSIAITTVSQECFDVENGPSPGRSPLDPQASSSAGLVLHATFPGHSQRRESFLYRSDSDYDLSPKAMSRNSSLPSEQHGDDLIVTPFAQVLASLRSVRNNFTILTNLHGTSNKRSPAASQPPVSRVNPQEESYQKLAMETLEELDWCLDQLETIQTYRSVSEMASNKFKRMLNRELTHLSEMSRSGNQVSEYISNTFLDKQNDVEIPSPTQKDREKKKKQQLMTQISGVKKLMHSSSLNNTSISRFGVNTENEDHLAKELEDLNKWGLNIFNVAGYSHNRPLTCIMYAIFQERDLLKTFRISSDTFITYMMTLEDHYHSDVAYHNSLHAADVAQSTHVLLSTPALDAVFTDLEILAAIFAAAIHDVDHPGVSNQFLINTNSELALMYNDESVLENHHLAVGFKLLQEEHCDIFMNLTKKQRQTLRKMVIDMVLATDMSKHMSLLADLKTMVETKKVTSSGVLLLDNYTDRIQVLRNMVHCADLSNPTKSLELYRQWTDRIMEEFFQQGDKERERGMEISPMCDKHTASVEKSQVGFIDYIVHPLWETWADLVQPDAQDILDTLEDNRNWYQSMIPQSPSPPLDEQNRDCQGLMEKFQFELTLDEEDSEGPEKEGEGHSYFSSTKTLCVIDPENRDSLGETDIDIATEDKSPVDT
UniProt O60658, whole entry: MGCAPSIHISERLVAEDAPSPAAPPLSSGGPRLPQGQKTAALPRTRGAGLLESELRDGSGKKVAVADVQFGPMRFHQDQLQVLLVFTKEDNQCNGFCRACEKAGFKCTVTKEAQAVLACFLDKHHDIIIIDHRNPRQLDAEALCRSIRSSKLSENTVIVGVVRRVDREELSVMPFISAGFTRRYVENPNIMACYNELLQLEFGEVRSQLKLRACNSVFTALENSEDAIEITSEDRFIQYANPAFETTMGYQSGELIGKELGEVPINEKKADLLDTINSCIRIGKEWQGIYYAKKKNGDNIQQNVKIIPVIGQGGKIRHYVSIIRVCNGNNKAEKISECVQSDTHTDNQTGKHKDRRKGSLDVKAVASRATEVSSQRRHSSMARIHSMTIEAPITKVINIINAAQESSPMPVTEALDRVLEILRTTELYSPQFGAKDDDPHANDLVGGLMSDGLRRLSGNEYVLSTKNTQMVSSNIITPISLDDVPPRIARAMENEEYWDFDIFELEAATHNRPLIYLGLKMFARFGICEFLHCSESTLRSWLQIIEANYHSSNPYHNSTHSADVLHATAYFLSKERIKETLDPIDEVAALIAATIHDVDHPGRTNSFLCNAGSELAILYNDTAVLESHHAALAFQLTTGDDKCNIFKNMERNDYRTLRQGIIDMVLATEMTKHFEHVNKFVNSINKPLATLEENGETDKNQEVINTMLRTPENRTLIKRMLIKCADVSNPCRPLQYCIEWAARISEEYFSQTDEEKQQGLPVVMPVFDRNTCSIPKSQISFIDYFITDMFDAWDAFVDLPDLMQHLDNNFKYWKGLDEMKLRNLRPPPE
UniProt Q13370, whole entry: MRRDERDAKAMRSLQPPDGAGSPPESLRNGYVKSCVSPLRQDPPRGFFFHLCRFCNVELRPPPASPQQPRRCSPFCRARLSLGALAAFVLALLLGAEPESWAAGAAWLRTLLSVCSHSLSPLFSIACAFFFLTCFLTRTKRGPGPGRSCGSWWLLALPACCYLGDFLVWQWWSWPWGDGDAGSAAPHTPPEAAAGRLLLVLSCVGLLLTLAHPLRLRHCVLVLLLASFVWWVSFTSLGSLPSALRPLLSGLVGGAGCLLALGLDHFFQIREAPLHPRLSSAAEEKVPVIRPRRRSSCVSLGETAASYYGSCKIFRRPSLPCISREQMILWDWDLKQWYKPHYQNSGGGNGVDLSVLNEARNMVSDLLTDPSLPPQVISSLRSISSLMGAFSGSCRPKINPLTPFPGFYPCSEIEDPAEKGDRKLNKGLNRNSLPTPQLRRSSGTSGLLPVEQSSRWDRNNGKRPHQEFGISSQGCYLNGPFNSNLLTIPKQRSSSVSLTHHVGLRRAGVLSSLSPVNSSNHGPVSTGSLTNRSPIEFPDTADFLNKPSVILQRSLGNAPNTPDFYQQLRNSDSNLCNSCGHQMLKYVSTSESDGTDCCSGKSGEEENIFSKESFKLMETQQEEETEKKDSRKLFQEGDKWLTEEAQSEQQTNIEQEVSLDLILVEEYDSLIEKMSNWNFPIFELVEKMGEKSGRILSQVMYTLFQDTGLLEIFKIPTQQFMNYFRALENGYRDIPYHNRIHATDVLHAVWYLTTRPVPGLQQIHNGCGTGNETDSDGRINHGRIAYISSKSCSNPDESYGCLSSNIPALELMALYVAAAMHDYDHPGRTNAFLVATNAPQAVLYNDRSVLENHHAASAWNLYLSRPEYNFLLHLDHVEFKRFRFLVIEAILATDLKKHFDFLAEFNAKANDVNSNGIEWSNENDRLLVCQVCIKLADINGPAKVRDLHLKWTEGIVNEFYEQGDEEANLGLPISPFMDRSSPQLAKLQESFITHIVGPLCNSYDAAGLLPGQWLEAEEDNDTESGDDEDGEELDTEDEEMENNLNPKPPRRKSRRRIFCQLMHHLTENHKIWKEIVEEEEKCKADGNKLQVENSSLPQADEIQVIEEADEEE
UniProt Q14432, whole entry: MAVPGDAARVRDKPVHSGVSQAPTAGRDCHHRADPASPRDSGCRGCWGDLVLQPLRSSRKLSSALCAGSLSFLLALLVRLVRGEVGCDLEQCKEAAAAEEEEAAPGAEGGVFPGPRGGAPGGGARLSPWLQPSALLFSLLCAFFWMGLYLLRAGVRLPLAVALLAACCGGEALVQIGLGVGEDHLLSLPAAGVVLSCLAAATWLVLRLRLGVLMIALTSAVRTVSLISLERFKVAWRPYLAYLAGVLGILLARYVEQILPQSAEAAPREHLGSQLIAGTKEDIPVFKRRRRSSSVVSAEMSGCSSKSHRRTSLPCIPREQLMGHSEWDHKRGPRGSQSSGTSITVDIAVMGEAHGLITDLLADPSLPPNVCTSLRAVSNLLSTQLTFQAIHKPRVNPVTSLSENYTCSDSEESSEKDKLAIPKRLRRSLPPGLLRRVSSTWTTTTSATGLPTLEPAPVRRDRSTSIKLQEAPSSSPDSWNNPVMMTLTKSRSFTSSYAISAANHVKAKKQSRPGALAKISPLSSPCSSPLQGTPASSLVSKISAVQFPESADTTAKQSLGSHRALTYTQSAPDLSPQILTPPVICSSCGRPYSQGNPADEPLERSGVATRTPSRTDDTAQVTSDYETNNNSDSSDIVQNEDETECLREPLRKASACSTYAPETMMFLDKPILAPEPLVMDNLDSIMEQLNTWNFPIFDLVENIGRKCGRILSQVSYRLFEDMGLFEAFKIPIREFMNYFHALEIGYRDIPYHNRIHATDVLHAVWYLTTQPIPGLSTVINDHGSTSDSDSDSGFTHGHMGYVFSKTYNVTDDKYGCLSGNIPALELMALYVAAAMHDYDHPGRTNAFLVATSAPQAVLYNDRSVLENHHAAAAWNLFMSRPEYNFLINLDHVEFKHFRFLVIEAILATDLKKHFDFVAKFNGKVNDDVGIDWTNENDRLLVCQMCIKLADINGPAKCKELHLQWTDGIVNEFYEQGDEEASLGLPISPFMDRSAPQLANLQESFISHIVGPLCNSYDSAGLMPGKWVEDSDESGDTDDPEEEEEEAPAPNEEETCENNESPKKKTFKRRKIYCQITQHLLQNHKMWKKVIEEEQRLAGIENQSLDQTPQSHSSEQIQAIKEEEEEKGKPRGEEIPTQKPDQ

Structures are written as SMILES. Several values for one entry are separate records, joined by “and”; a condition that tells them apart may be missing. Equal values may be shown once.

In experiment [1] the test system is Nebulized Acetylcholine-Induced Airway Constriction in Mice. Description: Nebulized acetylcholine-induced airway constriction in mice (airway resistance RL). On the procedure: Preparation of test compound: the test compounds were weighed as pure compounds without considering impurities due to the high purity of the test compounds. The test compound was prepared at a concentration of 10 mg/mL, using a pH 3.2 citric acid-disodium hydrogen phosphate buffer containing 25% DMSO as the solvent.
Administration of test compounds: The test compounds were administered to mice by oronasal nebulization using a NAM system from DSI. Each mouse received a total volume of 400 µL, delivered in two nebulization sessions of 5 min each. The model group received an equal volume of vehicle by nebulization.
Newly received experimental animals were quarantined for 3 days and grouped as described above. Airway nebulized administration was performed using the NAM system, with the nebulization procedure consisting of 5-min nebulization (200 µL), a 3-min interval, and another 5-min nebulization (200 µL). Approximately 0.5 h after completion of nebulized administration, acetylcholine was nebulized using the RC system (15 mg/mL, 20 µL, 30 s, prepared in 0.9% normal saline) to challenge the animals to induce airway constriction, and changes in airway resistance (RL) were simultaneously measured using the RC instrument.

The target in experiment [2] is PDE9A2 (Homo sapiens, UniProt O76083). Description: PDE enzyme activity inhibition assay II (fluorescence polarization). The note with it: read-out: IC50, nM PDE9A2; FP assay II, Table 5. On the procedure: (§1) In a reaction buffer, i.e., 1× IMAP Reaction Buffer containing 0.1% BSA and supplemented with 1 mM DTT, a PDE enzyme solution and a substrate solution (FAM-cyclic AMP/cyclic AMP) were prepared. The positive control was prepared at an initial concentration of 1/10 µM for the PDE assay and was diluted 3-fold, with a 10+0 dose design. Using the acoustic liquid handling technology (Echo 655), 0.05 µL of each compound in 100% DMSO was transferred into a 384-well plate (Corning 4514), followed by centrifugation at 1,000 rpm for 1 min. Then, 2.5 µL of the PDE enzyme solution was transferred into the 384-well reaction plate, followed by centrifugation at 1,000 rpm for 1 min and incubation at 25 °C for 10 min. Subsequently, 2.5 µL of the substrate solution was transferred into the 384-well reaction plate, followed by centrifugation at 1,000 rpm for 1 min and incubation at 25 °C for 60 min. Then, 15 µL of a binding reagent mixture was transferred into the 384-well reaction plate, followed by centrifugation at 1,000 rpm for 1 min and incubation at 25 °C for 60 min. Finally, the FP signal was measured using a BMG PHERAstar FSX plate reader. IC50 values and nonlinear regression curve fitting were obtained using GraphPad Prism software.
(§2) The inhibitory activities of the compounds against PDE enzymes were evaluated using the FP method, with RPL-554 and compound D7 as control compounds. The detailed test method was the same as that described in PDE Enzyme Activity Inhibition Assay I. The structural formulae of RPL-554 and compound D7 are shown below. [drawing 183]

The target in experiment [3] is PDE4C1 (Homo sapiens, UniProt Q08493). Described as above. The note with it: read-out: IC50, nM PDE4C1; FP assay II, Table 5. On the procedure:
as §1, §2

Experiment [4] has as its target PDE4D3 (Homo sapiens, UniProt Q08499). Described as above. To be noted: read-out: IC50, nM PDE4D3; FP assay II, Table 5. How it is done:
as §1, §2

Experiment [5] has as its target PDE7B (Homo sapiens, UniProt Q9NP56). Described as above. The note with it: read-out: IC50, nM PDE7B; FP assay II, Table 5. On the procedure: as §1, §2
The target in experiment [6] is PDE10A2 (Homo sapiens, UniProt Q9Y233). The description is as above. To be noted: read-out: IC50, nM PDE10A2; FP assay II, Table 5. On the procedure: as §1, §2
The target of experiment [7] is PDE1B (Homo sapiens, UniProt Q01064). The description is as above. The note with it: read-out: IC50, nM PDE1B; FP assay II, Table 5. How it is done: as §1, §2
For experiment [8], the target named is PDE7A1 (Homo sapiens, UniProt Q13946). The experiment is described as above. The note with it: read-out: IC50, nM PDE7A1; FP assay II, Table 5. On the procedure:
as §1, §2

For experiment [9], the target named is PDE4A1 (Homo sapiens, UniProt P27815). The experiment is described as above. The note with it: read-out: IC50, nM PDE4A1; FP assay II, Table 5. On the procedure:
as §1, §2

For experiment [10], the target named is PDE10A1 (Homo sapiens, UniProt Q9Y233). The experiment is described as above. The note with it: read-out: IC50, nM PDE10A1; FP assay II, Table 5. On the procedure: as §1, §2
In experiment [11] the target is PDE1C (Homo sapiens, UniProt Q14123). The experiment is described as above. To be noted: read-out: IC50, nM PDE1C; FP assay II, Table 5. On the procedure: as §1, §2
For experiment [12], the target named is PDE4B1 (Homo sapiens, UniProt Q07343). The experiment is described as above. To be noted: read-out: IC50, nM PDE4B1; FP assay II, Table 5. On the procedure: as §1, §2
Experiment [13] has as its target PDE2A1 (Homo sapiens, UniProt O00408). The experiment is described as above. To be noted: read-out: IC50, nM PDE2A1; FP assay II, Table 5. How it is done:
as §1, §2

Experiment [14] addresses PDE5A1 (Homo sapiens, UniProt O76074). Described as above. The note with it: read-out: IC50, nM PDE5A1; FP assay II, Table 5. How it is done:
as §1, §2

Experiment [15] has as its target PDE11A4 (Homo sapiens, UniProt Q9HCR9). The description is as above. To be noted: read-out: IC50, nM PDE11A4; FP assay II, Table 5. On the procedure: as §1, §2
The target of experiment [16] is PDE6C (Homo sapiens, UniProt P51160). The experiment is described as above. The note with it: read-out: IC50, nM PDE6C; FP assay II, Table 5. On the procedure: as §1, §2
The target of experiment [17] is PDE1A (Homo sapiens, UniProt P54750). Described as above. The note with it: read-out: IC50, nM PDE1A; FP assay II, Table 5. How it is done: as §1, §2
In experiment [18] the target is PDE8A1 (Homo sapiens, UniProt O60658). Described as above. The note with it: read-out: IC50, nM PDE8A1; FP assay II, Table 5. How it is done:
as §1, §2

For experiment [19], the target named is PDE3B (Homo sapiens, UniProt Q13370). Description: PDE enzyme activity inhibition assay (fluorescence polarization, IMAP). To be noted: read-out: PDE3B; FP assay, Table 4. How it is done: (§3) The inhibitory activity of the compounds of the Examples against PDE enzymes was evaluated using a fluorescence polarization (FP) assay. RPL-554, the compound disclosed in Example 1 of CN100415743C, was used as the positive control. [drawing 182]
as §1, §2
For orientation: In fluorescence polarisation assays a small probe gives low polarisation when free and higher when bound to something large.

For experiment [20], the target named is PDE4D2 (Homo sapiens, UniProt Q08499). The experiment is described as above. The note with it: read-out: PDE4D2; FP assay, Table 4. How it is done:
as §3, §1, §2

For experiment [21], the target named is PDE4B2 (Homo sapiens, UniProt Q07343). The experiment is described as above. To be noted: read-out: PDE4B2; FP assay, Table 4. On the procedure:
as §3, §1, §2

For experiment [22], the target named is PDE3A (Homo sapiens, UniProt Q14432). Described as above. To be noted: read-out: PDE3A; FP assay, Table 4. How it is done:
as §3, §1, §2

Regarding `COc1cc2c(cc1OC)-c1cc(N(c3c(C)cc(C)cc3C)C(C)CNC(N)=O)nc(=O)n1CC2` (single isomer, unassigned) [Compound 1-1], in experiment [1] (airway resistance (RL), single animal, about 0.5 h after nebulized administration (14 mg/mL, 400 µL), before ACh challenge), the Baseline value was 1.0 and 0.9 and 1.1. For the same molecule, the “Inhibition (%)” value in [1] (inhibition of ACh challenge-induced increase of airway resistance, compound 14 mg/mL nebulized) worked out at 24.5%. Besides, the Mean in experiment [1] (mean of challenge-induced increase of airway resistance, 3 animals, compound 14 mg/mL) is 8.0. Besides, the IC50 in experiment [2] is greater than 10000 nM; in experiment [3] it was 2160 nM; in [4], 252 nM; in experiment [5] it was greater than 10000 nM; in experiment [6], 40.3 nM; in experiment [7], 616 nM. Besides, the IC50 in experiment [8] was greater than 10000 nM; in experiment [9], 158 nM; in experiment [10] it was 59.9 nM; in experiment [11] it was 1770 nM; in [12], 820 nM; in [13] it was 1490 nM. Moreover, the IC50 was 5820 nM in experiment [14]; 3070 nM in [15]; 6210 nM in [16]; 4030 nM in experiment [17]; 1800 nM in [18]; 0.0698 nM in experiment [19]. The figures for the IC50 in experiment [20], in experiment [21] and in experiment [22] were 61.4 nM, 75.4 nM and 0.0996 nM, respectively.

As for `COc1cc2c(cc1OC)-c1cc(N(c3c(C)cc(C)cc3C)C3CCC(NC(N)=O)CC3)nc(=O)n1CC2` (centres unmarked), the IC50 in [19] worked out at 0.0848 nM; in [20] it was 29.5 nM; in [21], 64.8 nM; in [22], 0.0712 nM.

For the molecule `COc1cc2c(cc1OC)-c1cc(N(c3c(C)cc(C)cc3C)C3CC3CNC(N)=O)nc(=O)n1CC2` (single isomer, unassigned) [Compound 7-1], the IC50 in experiment [19] amounted to 0.287 nM; in experiment [20] it was 150 nM; in [21] it was 152 nM; in experiment [22] it was 0.141 nM.
